# Earlier results as cited in patent publication US20140329706A1, “AFFINITY TAGS, AND RELATED AFFINITY LIGANDS, ENGINEERED PROTEINS, MODIFIED SUPPORTS, COMPOSITIONS, METHODS AND SYSTEMS” (CALIFORNIA INSTITUTE OF TECHNOLOGY, priority 2013, published 2014).
# By UniProt entry, the sequences of proteins in these tests, tags left out. Residues count along the entry.
# UniProt P31016, 313-393 limits assumed: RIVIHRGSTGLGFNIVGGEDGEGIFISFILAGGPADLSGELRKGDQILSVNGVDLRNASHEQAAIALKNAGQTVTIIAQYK
# Biological target: T1, PSD-95 PDZ3 domain (Rattus norvegicus, UniProt P31016)
# T1 construct: between the PSD-95 PDZ3 domain and the C-terminal six amino acids of CRIPT (46,47)
# Details: PSD-95 PDZ3 domain and C-terminal six amino acids of CRIPT; refs (46,47); cited from earlier work
substance,measurement,value
"YKQTSV [C-terminal six amino acids of CRIPT, six C-terminal amino acids of the neuronal protein CRIPT, PDZ3 ligand]",Kd,~760 nM
